# Substitutions are numbered along the chain they refer to.
# B1: Ab15.H (antibody, human IgG1, kappa, N297A, V domains shown)
# VH: QQQLVESGGGLVQPGGSLRLSCAASGFTVSDTYDMCWVRQAPGKGLEWIGCIDTGSGDTYYPTSAKGRFTISRDNSKNTLYLQMNSLRAEDTAVYYCAKGVSSLWGQGTLVTVSS
# VL: DIQMTQSPSTLSASVGDRVTITCQASEDIESDLAWYQQKPGKAPKLLIYGASTLKSGVPSRFSGSGSGTEYTLTISSLQPDDFATYYCQTYYDMADDGASFGGGTKVEIKR
# B2: Ab17.H (antibody, human IgG1, kappa, N297A, V domains shown)
# VH: B1 VH with D31S, T32G, M35I, D58N, P62A, T63S, V101I
# VL: B1 VL with E27Q, D28T, E30S, G50A, T53K, K55T, Y71F, M94I, A95S, S100T
# B3: Ab15 (antibody, human IgG1, kappa, N297A, V domains shown)
# VH: QQQLEESGGGLVKPGGTLTLTCKGSGIAFSDTYDMCWVRQAPGKGLEWIGCIDTGSGDTYYPTWAKGRFTISKPSSTTVDLKMTSLTAADTATYFCAKGVSSLWGQGTLVTVSS
# VL: DIVMTQTPASVSEPVGGTVTIKCQASEDIESDLAWYQQKPGQPPKLLIYGASTLKSGVSSRFRGSGSGTEYTLTISDLECADAATYYCQTYYDMADDGCSFGGGTEVVVKR
# B4: Ab17 (antibody, human IgG1, kappa, N297A, V domains shown)
# VH: QQQLEESGGGLVKPGGTLTLTCKASGFSFSSGYDICWARQGPGKGLEWIGCIDTGSGNTYYASWAKGRFTISRTSSTTVTLQMTSLTAADTATYFCAKGISSLWGPGTLVTVSS
# VL: DIVMTQTPASVSEPVGGTVTIKCQASQTISSDLAWYQQKPGQPPKLLIYAASKLTSGVSSRFKGGGTGTQFTLTISDLECADAATYYCQTYYDISDDGCTFGGGTEVVVKR
# B5: Ab13.H (antibody, human IgG1, kappa, N297A, V domains shown)
# VH: EVQLVESGGGLVQPGGSLRLSCAASGFTVSSGYDICWVRQAPGKGLEWIGCIDTGSGNTYYASSAKGRFTMSRDNSKNTVYLQMNSLRAEDTAVYYCAKGISSIWGQGTLVTVSS
# VL: B1 VL with E27Q, D28T, E30S, G50A, T53K, K55T, Y71F, M94I, A95I, S100T
# B6: Ab13 (antibody, human IgG1, kappa, N297A, V domains shown)
# VH: QQLEESGGGLVKPGGTLTLTCTASGFSFSSGYDICWARQGPGKGLEWIGCIDTGSGNTYYASWAKGRFTMSRTSSTTVTLQVTSLTAADTATYFCAKGISSIWGPGTLVTVSS
# VL: B4 VL with S95I
# Target: T1, human ACTH 1-39 (human, N-terminal biotin in the ELISA and HTRF binding assays (p-1487, p-1488); 125I on Tyr23 in Example 9 (p-1542); unlabelled in SPR. Letters unchanged.)
# T1 peptide: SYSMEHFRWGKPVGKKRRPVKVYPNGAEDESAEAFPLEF
# Experiment: cell-based or functional assay
row,Binder,"IC50, ACTH-induced cAMP reporter, MC1R cells"
1,B1,2.1 nM
2,B2,1.56 nM
3,B3,2.11 nM
4,B4,2.56 nM

# Target: T1, human ACTH 1-39
# Experiment: SPR (ProteOn XPR36), antibody immobilized
Binder,Kd,koff,kon
B1,0.16 nM,0.00016 s⁻¹,1e+06 M⁻¹ s⁻¹
B5,0.076 nM,6.8e-05 s⁻¹,900000 M⁻¹ s⁻¹
B2,0.17 nM,0.00014 s⁻¹,820000 M⁻¹ s⁻¹
B3,0.088 nM,7.2e-05 s⁻¹,830000 M⁻¹ s⁻¹
B6,0.083 nM,8.3e-05 s⁻¹,1e+06 M⁻¹ s⁻¹
B4,0.33 nM,0.00025 s⁻¹,760000 M⁻¹ s⁻¹

# Target: T1, human ACTH 1-39
# Experiment: ELISA, biotin-huACTH 1-39 on neutravidin plate
row,Binder,EC50
1,B3,0.9 nM
2,B6,1.04 nM
3,B4,0.81 nM

# Target: T1, human ACTH 1-39
# Experiment: cell-based or functional assay
# Remark: another data set of the same source
Binder,"IC50, ACTH-induced cAMP, MC3R cells","IC50, ACTH-induced cAMP, MC4R cells","IC50, ACTH-induced cAMP, MC5R cells"
B1,131 nM,79.5 nM,4300 nM
B2,110 nM,81.6 nM,4000 nM
B3,136 nM,93.9 nM,6100 nM
B6,141 nM,71.4 nM,4700 nM
B4,139 nM,94.4 nM,5900 nM

# Target: T1, human ACTH 1-39
# Experiment: cell-based or functional assay
# Remark: another data set of the same source
row,Binder,"IC50, ACTH-induced cortisol, Y1 cells"
1,B1,3.83 nM
2,B5,1.91 nM
3,B2,4.3 nM
4,B3,1.84 nM
5,B4,4.47 nM

# Target: T1, human ACTH 1-39
# Experiment: cell-based or functional assay
# Remark: another data set of the same source
row,Binder,"IC50, ACTH-induced cAMP, MC2R cells"
1,B1,0.6 nM
2,B5,0.1 nM
3,B2,0.37 nM
4,B3,0.14 nM
5,B6,0.2 nM
6,B4,0.48 nM

# Target: T2, human alpha-MSH (ACTH 1-13) (human)
# T2 peptide: SYSMEHFRWGKPV
# Experiment: SPR (ProteOn XPR36), antibody immobilized
row,Binder,koff
1,B1,> 0.1 s⁻¹
2,B5,> 0.1 s⁻¹
3,B2,> 0.1 s⁻¹
4,B3,> 0.1 s⁻¹
5,B6,> 0.1 s⁻¹
6,B4,> 0.1 s⁻¹
